According to publication PMC4498684:

Target: VpSP37 (Vibrio parahaemolyticus secreted protease 37 kDa) (Vibrio parahaemolyticus (isolate B2))

## Aprotinin (from UniProt P00974 36-93) (natural protein)
  TLA Inhibition (%): residual trypsin-like activity of VpSP37 on BOC-Gln-Ala-Arg-AMC 0.025 mM after pre-incubation with 1 uM aprotinin at 37°C for 15-40 min: 98.2%
